# Values quoted from earlier work in patent publication US20220143026A1, “TRIPLE COMBINATION TO TREAT B-CELL MALIGNANCIES” (TG Therapeutics, Inc., priority 2020, published 2022).
# What was measured:
# [1] = target: EGFR (Homo sapiens, UniProt P00533); conditions: ratio of IC50s; cited from earlier work
# [2] = test system: whole kinome; conditions: compared with ibrutinib; cited from earlier work
smiles,measurement,setting,value
"CC#CC(=O)N1CC[C@@H](n2cc(-c3ccc(Oc4c(F)cccc4F)cc3)c3c(N)n[nH]c(=O)c32)C1 [TG-1701, (R)-4-amino-1-(1-(but-2-ynoyl)pyrrolidin-3-yl)-3-(4-(2,6-difluorophenoxy)phenyl)-1,6-dihydro-7H-pyrrolo[2,3-d]pyridazin-7-one]",fold less active on EGFR compared to BTK,[1],90 fold
same,selectivity for BTK in an in vitro whole kinome screening,[2],improved selectivity for BTK
